# Measurements as given in US20250093270A1, “Method for Detecting Enzyme Activity and Fluorescent Probe Used in Said Method” (priority 2022, published 2025).
# Tested on: cholinesterase (ChE)
# Conditions: time course fluorescence imaging in the microdevice
# Experimental: An enzyme stock solution was diluted with an assay buffer containing a fluorescent probe. Next, 40 μL of a reaction mixture was added to the microdevice (Simoa disk; Quanterx Corporation). Next, 80 μL of FC-70 (Sigma-Aldrich) was introduced into the microdevice to wash off the excess reaction mixture and form W/O droplets. A fluorescence signal of the catalytically produced fluorescent dye was measured under a fluorescence microscope, and the enzyme activity in the chamber was measured.
# Fluorescence images were acquired using a 20× dry objective (Plan Apo 20x), an sCMOS camera (ORCA-FusionC14440, Hamamatsu Photonics K.K.), a white LED lighting unit (X-Cite Xylis, Opto Science, Inc.), and a fluorescence microscope (Ti2, Nikon Corporation) equipped with a motorized stage. In the analysis, measurement was performed using a solution containing sSiR (10 μM) as an internal standard and the focus was adjusted using fluorescence. Images were acquired in tile scan mode at full focus.
# FIG. 5(c) illustrates a schematic diagram of a coupled assay of an acetylthiocholine system for detection of cholinesterase (ChE) activity.
# The image was acquired after incubation at 25° C. for 30 minutes.
# The upper view is a fluorescence image of a microdevice equipped with a probe (30 μM), acetylthiocholine (1 mM), and a 1/10,000-fold diluted plasma sample of a healthy human subject. […]
substance,measurement,value
"2,6-diPO3H2 Nitroolefin BODIPY [compound 17]",fading in time course imaging,about 5 %/captured image
